The test system of series [1] is mouse FL5.12 cells transfected with Bcl-XL. Nature of the series: FL5.12 cellular assay (cell viability, CellTiter-Glo).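 Note: each EC50 determination derived from duplicate measurements.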 The series is classed as cell-based. Particulars: IL-3-depleted, 3% FBS assay media, 24 hours, read-out: FL5.12 Bcl-xL, - IL3, EC 50.
A further series addresses GST-Bcl-xL (Homo sapiens, UniProt Q07817). Nature of the series: biochemical.
The conditions of series [2]: oral bioavailability, Sprague-Dawley rats, p.o. dose 5 mpk, 10% DMSO in PEG-400.

By UniProt entry, the sequences of proteins in these tests, tags left out.
UniProt Q07817, whole entry: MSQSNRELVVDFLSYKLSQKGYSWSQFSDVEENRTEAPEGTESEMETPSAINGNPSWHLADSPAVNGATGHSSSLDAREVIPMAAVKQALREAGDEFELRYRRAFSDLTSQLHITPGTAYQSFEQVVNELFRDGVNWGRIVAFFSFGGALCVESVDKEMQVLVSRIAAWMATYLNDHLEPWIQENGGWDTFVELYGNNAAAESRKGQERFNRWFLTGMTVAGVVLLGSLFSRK

The source of these data is patent EP2768830B1, “APOPTOSIS-INDUCING AGENTS FOR THE TREATMENT OF CANCER AND IMMUNE AND AUTOIMMUNE DISEASES” (AbbVie Inc., priority 2011, dated 2013).

Some results are limits rather than exact numbers.

By Ki is commonly meant a measure of affinity in units of concentration, obtained from inhibition or displacement. Turning to `COCCOC1(Cn2ncc(-c3ccc(N4CCc5cccc(C(=O)Nc6nc7ccccc7s6)c5C4)nc3C(=O)O)c2C)CCCC(C)(C)C1` (stereo not drawn) [Example 180, 6-[8-(1,3-benzothiazol-2-ylcarbamoyl)-3,4-dihydroisoquinolin-2(1H)-yl]-3-(1-{[1-(2-methoxyethoxy)-3,3-dimethylcyclohexyl]methyl}-5-methyl-1H-pyrazol-4-yl)pyridine-2-carboxylic acid], the EC50 in series [1] is < 0.1 nM. Also, the Ki on GST-Bcl-xL is < 0.1 nM. For `Cc1c(-c2ccc(N3CCc4cccc(C(=O)Nc5nc6ccccc6s5)c4C3)nc2C(=O)O)cnn1Cc1ccccc1` [Example 20, 6-[8-(1,3-benzothiazol-2-ylcarbamoyl)-3,4-dihydroisoquinolin-2(1H)-yl]-3-(1-benzyl-5-methyl-1H-pyrazol-4-yl)pyridine-2-carboxylic acid], in series [2], the “F (%), dose” value was 17, 5 mpk %.
